One substance from patent US20010049357A1, “Use of Hsp27 as an anti-inflammatory agent” (priority 1999, published 2001) can be followed below.

Experiment [1] concerns trauma patients' monocytes. Type of experiment: cell-based, human.
Experiment [2] concerns trauma patients' monocytes.

Turning to heat shock protein-27 [Hsp 27], the “IL-10(pg/10^6 cells/ml) x ± SEM” value in experiment [1] is listed as 670 ± 195 pg/10^6 cells/ml. Also, the “IL-12(pg/10^6 cells/ml) x ± SEM” value in experiment [2] was found to be 598 ± 140 pg/10^6 cells/ml.
